# Binding of CDR-mutated scFvs to a peptide of the spike HR2 region

All variants were tested on one target, the spike HR2 peptide PDVDLGDISGINAS (SARS-CoV-2).

The variants keep the heavy chain, the linker and the frameworks of Ab-14 (scFv order VH, the linker GGGGSGGGGSGGGGS, VL).
VH: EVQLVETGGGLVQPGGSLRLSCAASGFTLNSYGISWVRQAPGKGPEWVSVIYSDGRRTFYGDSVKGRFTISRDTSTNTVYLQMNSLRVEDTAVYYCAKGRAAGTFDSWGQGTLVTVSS
VL: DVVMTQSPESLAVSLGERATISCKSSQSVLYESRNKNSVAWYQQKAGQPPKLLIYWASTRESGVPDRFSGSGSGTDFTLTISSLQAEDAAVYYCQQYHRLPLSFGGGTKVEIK

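Phage display of a naive human antibody library on the peptide gave the parent. This is the validation round: designs drawn from the data on random variants, tested in the same kind of assay. Group labels follow the data file (Ctrl: baseline library sampled from a position-specific scoring matrix, with some repeated check sequences; Rand: our label for a block that the file lists under HC and that is probably the random mutants of the ten best first-round binders; GP: Gaussian process model; GPLM: also part of the Gaussian process libraries; HC: hill climbing; Gen: genetic algorithm; Gibbs: Gibbs sampling; a sequence that several methods proposed may carry one label only). AlphaSeq pools MATa yeast showing the antibodies with MATalpha yeast showing the peptide. After mating in shaken culture at 30 °C for 16 h, diploids were selected and their barcode pairs sequenced. Each replicate has its own calibration line, from reference interactions of the BCL2 family. There are six technical replicates.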

Positions count from residue 1 of the parent VL; S25V puts V in place of S. Variants here have at most six changes. The read-out is the apparent dissociation constant on a log10 scale (nM): the lower, the stronger. A mean of the replicates is given; it leaves out those without a signal. "no signal" marks a missing value. The strain was present, yet no cells mated with the target were sequenced in any replicate, which points to weak or no binding. Values of this round are not directly comparable with the first-round values of the same sequences.

changes	group	mean, log10 nM	replicates with signal	empty controls
S25V/S28L/W56N	GP_Gen	0.02	6 of 6	1 of 18
S25F/S26H/R34Q	Ctrl	0.42	6 of 6	1 of 18
S25M/V29W/W56G	GP_HC	-0.75	6 of 6	0 of 18
R34E/L102W/S103A	Ctrl	2.44	1 of 6	1 of 18
S25L/R34Q/W56N/E61M	GP_Gen	0.22	6 of 6	1 of 18
S25D/Q27W/R34K/S103P	Ctrl	2.04	1 of 6	0 of 18
S25V/S26P/V29M/W56N	GP_Gen	2.05	4 of 6	0 of 18
S25L/L30E/E32Q/W56N	GP_Gen	0.56	6 of 6	1 of 18
K24Q/S25L/S26M/W56H/T59L/S62D	GP_HC	-0.09	6 of 6	0 of 18
R34G/W56N	GPLM_HC	0.38	6 of 6	0 of 18
S25L/V29Q/L30E/W56D/S58T/T59Q	GP_Gibbs	0.15	6 of 6	1 of 18
Q27P/K36T/Q96D/P101E	Ctrl	1.92	3 of 6	0 of 18
Q27L/W56G	Ctrl	0.63	6 of 6	0 of 18
S25M/K36S/W56H/R60Q/E61N/R99E	Ctrl	0.82	6 of 6	0 of 18
S58T	Ctrl	1.77	5 of 6	0 of 18
S25V/Q27E/V29F/S38A/W56G/P101T	GP_HC	no signal	0 of 6	0 of 18
S25V/V29W/W56Q	GP_Gen	-0.12	6 of 6	1 of 18
S25L/W56M	Ctrl+GP_Gen	-0.24	6 of 12	1 of 36
S26W/S28M	Ctrl	1.69	2 of 6	1 of 18
Q27I/V29Y/V39Y/W56E	Rand	0.58	6 of 6	0 of 18
V29A/Y31G/W56A	Ctrl	0.35	6 of 6	1 of 18
S25L/V29G/S38N/W56N	GP_Gen	no signal	0 of 6	0 of 18
S25L/Q27C/S28G/L30D/W56G/A57G	GP_Gibbs	0.03	6 of 6	1 of 18
S25I/Q27I/V29Y/K36T/W56E	GP_HC	0.17	6 of 6	3 of 18
S25L/V29D/K36S/W56N	GP_Gen	-0.16	6 of 6	1 of 18
E32S/R34Y/W56F/S62D	Ctrl	2.05	1 of 6	0 of 18
S25L/V29Y/L30E/W56N/T59Q/S62H	GP_Gibbs	-0.36	6 of 6	0 of 18
S25L/V29W/N35A/W56N	GP_Gen	-0.26	6 of 6	2 of 18
S25L/S26M/V29M/W56N/E61L	GP_Gen	-0.20	6 of 6	1 of 18
E32N/N35H/Q95G/Y97C/H98Q/S103C	Ctrl	no signal	0 of 6	0 of 18
R34D/H98C	Ctrl	1.90	4 of 6	0 of 18
V29H/W56N	GP_Gen	0.29	6 of 6	4 of 18
S25L/S26M/L30M/W56N	GP_Gen	0.20	6 of 6	0 of 18
S25L/S26P/V29Y/W56E	GP_Gen	0.37	6 of 6	1 of 18
S25L/S26Y/V29W/W56N/E61M	GP_Gen	0.09	6 of 6	0 of 18
S26N/V29W/W56G/T59K	GP_HC	-0.04	6 of 6	0 of 18
Q27N/S38A/T59I/S62L	Ctrl	1.64	5 of 6	0 of 18
S25L/S26Q/L30P/W56D	GP_Gen	-0.31	6 of 6	0 of 18
S25F/S28W/W56N	GP_HC	0.17	6 of 6	0 of 18
S25V/S26L/L30Q/S33G/W56H/S62D	GP_HC	0.05	6 of 6	0 of 18
Q27I/V29Y/R34E/W56Q/T59Q	GP_HC	0.71	6 of 6	2 of 18
R34S/W56M	Ctrl	1.73	6 of 6	0 of 18
S25L/V29D/W56N/E61Y	GP_Gen	0.01	6 of 6	1 of 18
L30P/S38G	Ctrl	no signal	0 of 6	0 of 18
S26G/Q27C/S28G/V29Q/W56G	GP_HC	-0.02	6 of 6	1 of 18
S25L/S26D/V29W/W56N	GP_Gen	0.57	6 of 6	4 of 18
Y31N/K36T/Y97P	Ctrl	no signal	0 of 6	0 of 18
Y31V/R34S/W56E	Ctrl	0.34	6 of 6	2 of 18
S25L/S26P/V29H/W56D	GP_Gen	-0.22	6 of 6	1 of 18
H98T/L100H/S103W	Ctrl	2.16	4 of 6	1 of 18
S25I/Y31M/W56E	GP_Gen	-0.24	6 of 6	0 of 18
S25E/Y31H/S33W/W56D	GP_HC	-0.13	6 of 6	0 of 18
S25L/Q27T/W56G	GP_Gen	-0.44	6 of 6	0 of 18
S25M/Q27E/S33L/S62R/H98S	Ctrl	1.42	5 of 6	0 of 18
S25Q/S26G/K36A	Ctrl	3.01	2 of 6	0 of 18
S25L/S26D/S28G/V29T/W56G	GP_HC	-0.12	6 of 6	1 of 18
K24H/Q27P/K36G/W56N/S62E	GP_HC	0.86	6 of 6	1 of 18
V29P/Y31M/W56H	Ctrl	0.82	6 of 6	0 of 18
S25L/W56D/S62V	GP_Gen	1.02	6 of 6	0 of 18
R34E/W56K/H98M	Ctrl	0.25	6 of 6	1 of 18
S25L/S26M/V29D/W56N/E61M	GP_Gen	-0.33	6 of 6	2 of 18
S25V/S26E/Y31E	Ctrl	0.71	6 of 6	0 of 18
S25L/N35D/W56N/E61L	GP_Gen	0.30	6 of 6	0 of 18
S25L/V29E/K36F/W56N/E61M	GP_Gen	0.28	6 of 6	1 of 18
R34V/T59L/Q95M/H98I	Ctrl	no signal	0 of 6	0 of 18
K24M/S25D/S26E/R34C/Q96V/R99V	Ctrl	no signal	0 of 6	0 of 18
E32D/W56D/Q96H	Ctrl	0.40	6 of 6	1 of 18
S25L/Q27W/S28G/W56G	GP_HC	0.76	6 of 6	1 of 18
S25Q/W56D/S103Q	GP_HC	0.42	6 of 6	0 of 18
S25L/S26V/V29W/W56N	GP_Gen	0.27	6 of 6	2 of 18
S25L/S33A/W56N/E61M	GP_Gen	0.19	6 of 6	1 of 18

The first 6 entries again:

| changes | group | mean, log10 nM | replicates with signal | empty controls |
|---|---|---|---|---|
| S25V/S28L/W56N | GP_Gen | 0.02 | 6 of 6 | 1 of 18 |
| S25F/S26H/R34Q | Ctrl | 0.42 | 6 of 6 | 1 of 18 |
| S25M/V29W/W56G | GP_HC | -0.75 | 6 of 6 | 0 of 18 |
| R34E/L102W/S103A | Ctrl | 2.44 | 1 of 6 | 1 of 18 |
| S25L/R34Q/W56N/E61M | GP_Gen | 0.22 | 6 of 6 | 1 of 18 |
| S25D/Q27W/R34K/S103P | Ctrl | 2.04 | 1 of 6 | 0 of 18 |

In the paper, a design with two or fewer of six values counts as a poor binder. Background: pairings of all light chain designs with three empty control strains gave a value in 4% of cases (median 2.64, 5th percentile 1.59). Values in that range, when seen in few replicates, are hard to tell from nonspecific mating. For each scFv, signals with the empty controls are counted beside the result. Where one sequence has several entries in the source, the replicates are pooled.

The measurements come from Li et al. 2023 (doi:10.1038/s41467-023-39022-2) through the FLAb antibody collection.